Experimental data taken from patent publication US4461900A, “4,5-Dihydrothiadiazole 1,1-dioxide derivatives” (American Home Products Corporation, priority 1983, dated 1984).

Protein sequences, listed by entry. Tags and fused reporters are not part of them.
UniProt P47747, whole entry: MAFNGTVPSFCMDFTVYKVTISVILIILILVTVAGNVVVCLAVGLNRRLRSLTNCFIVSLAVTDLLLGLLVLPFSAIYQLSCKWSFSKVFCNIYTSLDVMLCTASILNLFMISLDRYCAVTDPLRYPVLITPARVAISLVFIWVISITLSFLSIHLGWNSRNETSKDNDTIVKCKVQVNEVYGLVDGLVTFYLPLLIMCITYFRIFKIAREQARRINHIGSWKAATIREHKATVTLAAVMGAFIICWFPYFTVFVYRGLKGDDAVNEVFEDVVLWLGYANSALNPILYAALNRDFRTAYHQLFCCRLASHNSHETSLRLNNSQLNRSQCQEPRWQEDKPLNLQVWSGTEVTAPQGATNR

Molecular target: T1, H2 -receptor (Cavia porcellus, UniProt P47747)
T1 construct: The right atria of Males Charles River guinea-pigs; from tissue; host or cells: isolated right atria of male Charles River guinea-pigs
Test: In vitro H2 antagonism: histamine-induced heart rate increase in isolated guinea-pig right atria
Format: cell-based
Details: histamine dose-response, 30 min after antagonist, 32° C.

CNC(=NC#N)NCCSCc1[nH]cnc1C [Cimetidine, cimetidine]
pA2 (95% interval), apparent dissociation constant: 6.40 (6.62-6.17)
